Test: Prodrug to drug conversion half-life in vitro, PBS pH 7.4, 37° C.
Format: physicochemical
Description: General Methods for Measuring Conversion Half-Life
The assay was performed to investigate the conversion half-life of prodrug to drug of the prodrugs of the invention.
Peptide stock solutions were prepared by dissolving freeze-dried powder in PBS buffer to a target of 200 μM. PBS-buffer was Dulbecco's Phosphate Buffered Saline without CaCl2 and MgCl2, gibco 14190-094 adjusted to pH=7.4. The pH of the peptide stock solutions was adjusted to 7.4 with 0.02 M HCl or 0.02M NaOH. Samples were filled in Agilent HPLC vials with fixed insert. Vials were capped to prevent evaporation. The HPLC vials were incubated at 37° C. and samples were withdrawn at different time points over a period of 2 weeks, flash frozen at −80° C., and stored at −20° C. until analysis.
Sample analysis was carried out using UPLC coupled to UV detection at 215 nm and MS (UPLC-UV-MS). One μl of sample was injected on to a Waters Acquity UPLC with a flow-through-needle injection system and on to a Waters Acquity CSH C18 column (1*150 mm), with a particle size of 1.7 μm and held at 55° C. A flow-rate of 100 μl/min was delivered with a Binary solvent manager pump having 0.1% formic acid in water as solvent A and 0.1% formic acid in acetonitrile as solvent B. Gradient elution was carried out using 15-32% B from 0 to 4 min followed by 32 to 48% B from 4 to 54 min.
The identity of the prodrug was confirmed by MS and the peak purity, area %, from the UV signal at 215 nm was plotted as the natural logarithm against time and the slope (k) was used to calculate the first order half-life (T½)=T½=Ln(2)/k.

Row | SMILES | half-life [h]
1 | CC[C@H](C)[C@H](NC(=O)[C@H](Cc1ccccc1)NC(=O)[C@H](CCC(=O)O)NC(=O)[C@H](CCCCNC(=O)COCCOCCNC(=O)COCCOCCNC(=O)CC[C@H](NC(=O)CCCCCCCCCCCCCCCCC(=O)O)C(=O)O)NC(=O)[C@H](C)NC(=O)[C@H](C)NC(=O)[C@H](CCC(N)=O)NC(=O)CNC(=O)[C@H](CCC(=O)O)NC(=O)[C@H](CC(C)C)NC(=O)[C@H](Cc1ccc(O)cc1)NC(=O)[C@H](CO)NC(=O)[C@H](CO)NC(=O)[C@@H](NC(=O)[C@H](CC(=O)O)NC(=O)[C@H](CO)NC(=O)[C@@H](NC(=O)[C@H](Cc1ccccc1)NC(=O)[C@@H](NC(=O)CNC(=O)[C@H](CCC(=O)O)NC(=O)C(C)(C)NC(=O)[C@H](Cc1c[nH]cn1)NC(=O)CN(CCNC(=O)CC[C@H](NC(=O)CC[C@H](NC(=O)CC[C@H](NC(=O)CCCCCCCCCCCCCCC(=O)O)C(=O)O)C(=O)O)C(=O)O)C(=O)CN)[C@@H](C)O)[C@@H](C)O)C(C)C)C(=O)N[C@@H](C)C(=O)N[C@@H](Cc1c[nH]c2ccccc12)C(=O)N[C@@H](CC(C)C)C(=O)N[C@H](C(=O)N[C@@H](CCCNC(=N)N)C(=O)NCC(=O)N[C@@H](CCCNC(=N)N)C(=O)NCC(=O)O)C(C)C [Chem. 20, Gly-N^α-2-[[(4S)-4-carboxy-4-[[(4S)-4-carboxy-4-[[(4S)-4-carboxy-4-(15-carboxypentadecanoylamino)butanoyl]amino]butanoyl]amino]butanoyl]amino]ethyl-Gly-semaglutide] | 134
2 | CC[C@H](C)[C@H](NC(=O)[C@H](Cc1ccccc1)NC(=O)[C@H](CCC(=O)O)NC(=O)[C@H](CCCCNC(=O)COCCOCCNC(=O)COCCOCCNC(=O)CC[C@H](NC(=O)CCCCCCCCCCCCCCCCC(=O)O)C(=O)O)NC(=O)[C@H](C)NC(=O)[C@H](C)NC(=O)[C@H](CCC(N)=O)NC(=O)CNC(=O)[C@H](CCC(=O)O)NC(=O)[C@H](CC(C)C)NC(=O)[C@H](Cc1ccc(O)cc1)NC(=O)[C@H](CO)NC(=O)[C@H](CO)NC(=O)[C@@H](NC(=O)[C@H](CC(=O)O)NC(=O)[C@H](CO)NC(=O)[C@@H](NC(=O)[C@H](Cc1ccccc1)NC(=O)[C@@H](NC(=O)CNC(=O)[C@H](CCC(=O)O)NC(=O)C(C)(C)NC(=O)[C@H](Cc1c[nH]cn1)NC(=O)CN(CCCCNC(=O)CC[C@H](NC(=O)CCCCCCCCCCCCCCC(=O)O)C(=O)O)C(=O)CN)[C@@H](C)O)[C@@H](C)O)C(C)C)C(=O)N[C@@H](C)C(=O)N[C@@H](Cc1c[nH]c2ccccc12)C(=O)N[C@@H](CC(C)C)C(=O)N[C@H](C(=O)N[C@@H](CCCNC(=N)N)C(=O)NCC(=O)N[C@@H](CCCNC(=N)N)C(=O)NCC(=O)O)C(C)C [Chem. 21, Gly-N^α-4-[[(4S)-4-carboxy-4-(15-carboxypentadecanoylamino)butanoyl]amino]butyl-Gly-semaglutide] | 93.6
3 | CC[C@H](C)[C@H](NC(=O)[C@H](Cc1ccccc1)NC(=O)[C@H](CCC(=O)O)NC(=O)[C@H](CCCCNC(=O)COCCOCCNC(=O)COCCOCCNC(=O)CC[C@H](NC(=O)CCCCCCCCCCCCCCCCC(=O)O)C(=O)O)NC(=O)[C@H](C)NC(=O)[C@H](C)NC(=O)[C@H](CCC(N)=O)NC(=O)CNC(=O)[C@H](CCC(=O)O)NC(=O)[C@H](CC(C)C)NC(=O)[C@H](Cc1ccc(O)cc1)NC(=O)[C@H](CO)NC(=O)[C@H](CO)NC(=O)[C@@H](NC(=O)[C@H](CC(=O)O)NC(=O)[C@H](CO)NC(=O)[C@@H](NC(=O)[C@H](Cc1ccccc1)NC(=O)[C@@H](NC(=O)CNC(=O)[C@H](CCC(=O)O)NC(=O)C(C)(C)NC(=O)[C@H](Cc1c[nH]cn1)NC(=O)CN(CCNC(=O)[C@H](CCC(=O)O)NC(=O)[C@H](CCC(=O)O)NC(=O)CC[C@H](NC(=O)CCCCCCCCCCCCCCC(=O)O)C(=O)O)C(=O)CN)[C@@H](C)O)[C@@H](C)O)C(C)C)C(=O)N[C@@H](C)C(=O)N[C@@H](Cc1c[nH]c2ccccc12)C(=O)N[C@@H](CC(C)C)C(=O)N[C@H](C(=O)N[C@@H](CCCNC(=N)N)C(=O)NCC(=O)N[C@@H](CCCNC(=N)N)C(=O)NCC(=O)O)C(C)C [Chem. 22, Gly-N^α-2-[[(2S)-4-carboxy-2-[[(2S)-4-carboxy-2-[[(4S)-4-carboxy-4-(15-carboxypentadecanoylamino)butanoyl]amino]butanoyl]amino]butanoyl]amino]ethyl-Gly-semaglutide] | 173
4 | CC[C@H](C)[C@H](NC(=O)[C@H](Cc1ccccc1)NC(=O)[C@H](CCC(=O)O)NC(=O)[C@H](CCCCNC(=O)COCCOCCNC(=O)COCCOCCNC(=O)CC[C@H](NC(=O)CCCCCCCCCCCCCCCCC(=O)O)C(=O)O)NC(=O)[C@H](C)NC(=O)[C@H](C)NC(=O)[C@H](CCC(N)=O)NC(=O)CNC(=O)[C@H](CCC(=O)O)NC(=O)[C@H](CC(C)C)NC(=O)[C@H](Cc1ccc(O)cc1)NC(=O)[C@H](CO)NC(=O)[C@H](CO)NC(=O)[C@@H](NC(=O)[C@H](CC(=O)O)NC(=O)[C@H](CO)NC(=O)[C@@H](NC(=O)[C@H](Cc1ccccc1)NC(=O)[C@@H](NC(=O)CNC(=O)[C@H](CCC(=O)O)NC(=O)C(C)(C)NC(=O)[C@H](Cc1c[nH]cn1)NC(=O)CN(CCNC(=O)[C@H](CCCCN)NC(=O)CC[C@H](NC(=O)CCCCCCCCCCCCCCC(=O)O)C(=O)O)C(=O)CN)[C@@H](C)O)[C@@H](C)O)C(C)C)C(=O)N[C@@H](C)C(=O)N[C@@H](Cc1c[nH]c2ccccc12)C(=O)N[C@@H](CC(C)C)C(=O)N[C@H](C(=O)N[C@@H](CCCNC(=N)N)C(=O)NCC(=O)N[C@@H](CCCNC(=N)N)C(=O)NCC(=O)O)C(C)C [Chem. 23, Gly-N^α-2-[[(2S)-4-carboxy-2-[[(2S)-4-carboxy-2-[[(4S)-4-carboxy-4-(15-carboxypentadecanoylamino)butanoyl]amino]butanoyl]amino]butanoyl]amino]ethyl-Gly-semaglutide] | 132
5 | CC[C@H](C)[C@H](NC(=O)[C@H](Cc1ccccc1)NC(=O)[C@H](CCC(=O)O)NC(=O)[C@H](CCCCNC(=O)COCCOCCNC(=O)COCCOCCNC(=O)CC[C@H](NC(=O)CCCCCCCCCCCCCCCCC(=O)O)C(=O)O)NC(=O)[C@H](C)NC(=O)[C@H](C)NC(=O)[C@H](CCC(N)=O)NC(=O)CNC(=O)[C@H](CCC(=O)O)NC(=O)[C@H](CC(C)C)NC(=O)[C@H](Cc1ccc(O)cc1)NC(=O)[C@H](CO)NC(=O)[C@H](CO)NC(=O)[C@@H](NC(=O)[C@H](CC(=O)O)NC(=O)[C@H](CO)NC(=O)[C@@H](NC(=O)[C@H](Cc1ccccc1)NC(=O)[C@@H](NC(=O)CNC(=O)[C@H](CCC(=O)O)NC(=O)C(C)(C)NC(=O)[C@H](Cc1c[nH]cn1)NC(=O)CN(CCNC(=O)[C@H](CO)NC(=O)CC[C@H](NC(=O)CCCCCCCCCCCCCCC(=O)O)C(=O)O)C(=O)CN)[C@@H](C)O)[C@@H](C)O)C(C)C)C(=O)N[C@@H](C)C(=O)N[C@@H](Cc1c[nH]c2ccccc12)C(=O)N[C@@H](CC(C)C)C(=O)N[C@H](C(=O)N[C@@H](CCCNC(=N)N)C(=O)NCC(=O)N[C@@H](CCCNC(=N)N)C(=O)NCC(=O)O)C(C)C [Chem. 24, Gly-N^α-2-[[(2S)-2-[[(4S)-4-carboxy-4-(15-carboxypentadecanoylamino)butanoyl]amino]-3-hydroxypropanoyl]amino]ethyl-Gly-semaglutide] | 161

Source: patent US12616739B2, “GLP-1 prodrugs and uses thereof” (Novo Nordisk A/S, priority 2020, dated 2026)
